{"source": "patent US5654308A", "about": "(priority 1990, dated 1997)"}
{"target": "acetylcholine esterase (Mus musculus, UniProt P21836)", "settings": "read-out: AChE inhibiting activity IC50; mouse brain homogenate; acetylthiocholine substrate, DTNB, 412 nm", "units": {"IC50": "nM"}}
{"smiles": "Cc1ccc2c(n1)CN(CCC1CCN(Cc3ccncc3)CC1)C(=O)O2", "IC50": 10.4}
{"smiles": "Cc1ccc2c(n1)CN(CCC1CCN(Cc3ccccc3)CC1)C(=O)O2", "IC50": 0.79}
{"smiles": "O=C1Oc2cccnc2CN1CCC1CCN(Cc2ccccc2)CC1", "IC50": 3.92}
{"smiles": "Cc1ccc2c(n1)CN(C1CCN(Cc3ccccc3)CC1)C(=O)O2", "IC50": 56000}
